These results are taken from ChEMBL document CHEMBL1155996, “Improving potency and selectivity of a new class of non-Zn-chelating MMP-13 inhibitors” (Bioorg Med Chem Lett, 2009).

In the assay the target is Collagenase 3 (Homo sapiens, UniProt P45452). In words: Inhibition of human MMP13 by FRET assay.

pIC50: −log10 of the molar value.

Broadly, the pIC50 is the negative decadic logarithm of the IC50, by convention in mol/L. The low end stands for a large IC50, the high end for a small IC50. On to `CNC(=O)[C@@H](NC(=O)c1ccc(-c2ccc(NC(=O)c3cc4ccccc4o3)cc2)o1)C1CCCCC1`, for which the pIC50 is 6.21.
